# Test results reported in patent publication US10376524B2, “Use of GABAA receptor antagonists for the treatment of excessive sleepiness and disorders associated with excessive sleepiness” (EMORY UNIVERSITY, priority 2008, dated 2019).
# Amino acid sequences for entries named in this document (tags omitted). Residues count along the entry.
# UniProt P14867, 28-456: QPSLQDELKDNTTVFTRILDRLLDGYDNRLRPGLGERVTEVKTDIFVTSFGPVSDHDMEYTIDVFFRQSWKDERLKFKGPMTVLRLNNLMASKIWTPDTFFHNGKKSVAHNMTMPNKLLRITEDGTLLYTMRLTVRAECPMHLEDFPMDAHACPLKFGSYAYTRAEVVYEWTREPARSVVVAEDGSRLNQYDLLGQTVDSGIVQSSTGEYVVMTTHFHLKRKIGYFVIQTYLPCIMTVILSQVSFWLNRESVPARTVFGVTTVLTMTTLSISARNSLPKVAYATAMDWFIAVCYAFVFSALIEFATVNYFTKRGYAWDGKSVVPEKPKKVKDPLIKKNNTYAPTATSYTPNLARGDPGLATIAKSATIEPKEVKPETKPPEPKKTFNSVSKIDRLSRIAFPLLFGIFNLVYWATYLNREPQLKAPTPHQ
# UniProt P18507, 40-467 isoform P18507-1 limits assumed: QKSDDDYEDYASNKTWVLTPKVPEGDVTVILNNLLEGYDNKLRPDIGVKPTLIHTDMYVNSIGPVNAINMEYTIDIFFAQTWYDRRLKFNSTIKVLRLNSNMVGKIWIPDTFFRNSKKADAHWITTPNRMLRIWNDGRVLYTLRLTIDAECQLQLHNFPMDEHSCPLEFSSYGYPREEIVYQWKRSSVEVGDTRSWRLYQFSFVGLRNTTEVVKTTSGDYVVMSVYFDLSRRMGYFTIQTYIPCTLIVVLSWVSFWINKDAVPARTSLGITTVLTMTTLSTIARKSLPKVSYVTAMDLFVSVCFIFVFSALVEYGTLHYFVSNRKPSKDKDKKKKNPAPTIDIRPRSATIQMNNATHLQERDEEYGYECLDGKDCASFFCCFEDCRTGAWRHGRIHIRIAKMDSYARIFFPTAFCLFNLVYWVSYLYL
# UniProt P47870, 26-512: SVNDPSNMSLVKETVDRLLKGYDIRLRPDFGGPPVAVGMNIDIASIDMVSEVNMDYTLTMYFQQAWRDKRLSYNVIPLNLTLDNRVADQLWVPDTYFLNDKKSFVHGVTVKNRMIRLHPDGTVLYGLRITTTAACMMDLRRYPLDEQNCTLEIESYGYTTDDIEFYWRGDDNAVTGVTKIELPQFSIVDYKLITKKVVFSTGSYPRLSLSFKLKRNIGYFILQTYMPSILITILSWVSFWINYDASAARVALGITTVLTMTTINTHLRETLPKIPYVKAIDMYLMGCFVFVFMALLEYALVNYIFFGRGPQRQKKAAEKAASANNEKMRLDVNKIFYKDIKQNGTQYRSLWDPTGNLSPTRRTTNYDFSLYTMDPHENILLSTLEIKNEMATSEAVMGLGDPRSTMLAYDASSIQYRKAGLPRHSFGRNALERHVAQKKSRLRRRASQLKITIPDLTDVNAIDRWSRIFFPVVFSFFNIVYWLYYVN
# How the values were obtained:
# hypersomnic patients [1] = test system: hypersomnic patients
# [2] = molecular target: human α1β2γ2s GABAA receptor (Homo sapiens, UniProt P14867+P18507+P47870); conditions: following 12 mg sublingual formulation of flumazenil; FIG. 2
# [3] = test system: Patient AS99 (idiopathic hypersomnia); assay: Pittsburgh Sleep Quality Index, patient AS99 on sublingual flumazenil; conditions: 1 month post, pre-treatment 4
# hypersomnic patients [4] = assay: Psychomotor Vigilance Task (PVT) after intravenous flumazenil; type: in vivo, human; conditions: for number of lapses relative to baseline: group
structure (smiles),measurement,setting,value
CCOC(=O)c1ncn2c1CN(C)C(=O)c1cc(F)ccc1-2 [flumazenil],mean relative Gamma Power,"hypersomnic patients [1]; subject DS122, 0.5 mg, 30 minutes after treatment, saline 0.0124",0.0142
same,mean relative Beta Power,"hypersomnic patients [1]; subject DS122, 0.5 mg, 30 minutes after treatment, saline 0.1011",0.1165
same,mean relative Alpha Power,"hypersomnic patients [1]; subject DS122, 0.5 mg, 30 minutes after treatment, saline 0.1966",0.2183
same,mean relative Theta Power,"hypersomnic patients [1]; subject DS122, 0.5 mg, 30 minutes after treatment, saline 0.2777",0.2995
same,mean relative Delta Power,"hypersomnic patients [1]; subject DS122, 0.5 mg, 30 minutes after treatment, saline 0.4122",0.3515
same,mean relative Gamma Power,"hypersomnic patients [1]; subject DS122, 2.0 mg, 30 minutes after treatment, saline 0.0124",0.0157
same,mean relative Beta Power,"hypersomnic patients [1]; subject DS122, 2.0 mg, 30 minutes after treatment, saline 0.1011",0.1141
same,mean relative Alpha Power,"hypersomnic patients [1]; subject DS122, 2.0 mg, 30 minutes after treatment, saline 0.1966",0.1798
same,mean relative Theta Power,"hypersomnic patients [1]; subject DS122, 2.0 mg, 30 minutes after treatment, saline 0.2777",0.3776
same,mean relative Delta Power,"hypersomnic patients [1]; subject DS122, 2.0 mg, 30 minutes after treatment, saline 0.4122",0.3128
same,mean relative Delta Power,"hypersomnic patients [1]; subject ED102, 0.5 mg, 10 min segment 30 minutes after treatment, saline 0.5314",0.5199
same,mean relative Gamma Power,"hypersomnic patients [1]; subject ED102, 0.5 mg, 30 minutes after treatment, saline 0.0565",0.0642
same,mean relative Alpha Power,"hypersomnic patients [1]; subject ED102, 0.5 mg, 30 minutes after treatment, saline 0.1090",0.1017
same,mean relative Beta Power,"hypersomnic patients [1]; subject ED102, 0.5 mg, 30 minutes after treatment, saline 0.1207",0.1387
same,mean relative Theta Power,"hypersomnic patients [1]; subject ED102, 0.5 mg, 30 minutes after treatment, saline 0.1824",0.1755
same,mean relative Gamma Power,"hypersomnic patients [1]; subject ED102, 2.0 mg, 30 minutes after treatment, saline 0.0565",0.1032
same,mean relative Alpha Power,"hypersomnic patients [1]; subject ED102, 2.0 mg, 30 minutes after treatment, saline 0.1090",0.0866
same,mean relative Beta Power,"hypersomnic patients [1]; subject ED102, 2.0 mg, 30 minutes after treatment, saline 0.1207",0.1803
same,mean relative Theta Power,"hypersomnic patients [1]; subject ED102, 2.0 mg, 30 minutes after treatment, saline 0.1824",0.1479
same,mean relative Delta Power,"hypersomnic patients [1]; subject ED102, 2.0 mg, 30 minutes after treatment, saline 0.5314",0.4820
same,enhancement of GABAA receptor function by subject's plasma,[2],Enhancement is reduced
same,Pittsburgh Sleep Quality Index,[3],2
same,number of lapses relative to baseline,"hypersomnic patients [4]; high dose, t=3.51, p=0.039",decreased
same,median RTs relative to baseline,"hypersomnic patients [4]; low dose, group of five cases, t=2.56, p=0.063",decreases
same,number of lapses relative to baseline,"hypersomnic patients [4]; low dose, t=3.03, p=0.056",decreased

# Read-outs that look alike come from different tables or passages of the source.
